Source: PubChem BioAssay (EPA / NIEHS)
Only a part is listed here, and it is no random draw. Active and inactive are the calls of the source. Rule for the calls: active = hit-call score of the fitted dose curve at least 0.9, where 1 is the maximum; inactive = score below 0.9.

By UniProt entry, the sequences of proteins in these tests, tags left out. Where a name states a change or a piece, a line headed by the entry shows the natural chain unless it says otherwise.
UniProt P19838: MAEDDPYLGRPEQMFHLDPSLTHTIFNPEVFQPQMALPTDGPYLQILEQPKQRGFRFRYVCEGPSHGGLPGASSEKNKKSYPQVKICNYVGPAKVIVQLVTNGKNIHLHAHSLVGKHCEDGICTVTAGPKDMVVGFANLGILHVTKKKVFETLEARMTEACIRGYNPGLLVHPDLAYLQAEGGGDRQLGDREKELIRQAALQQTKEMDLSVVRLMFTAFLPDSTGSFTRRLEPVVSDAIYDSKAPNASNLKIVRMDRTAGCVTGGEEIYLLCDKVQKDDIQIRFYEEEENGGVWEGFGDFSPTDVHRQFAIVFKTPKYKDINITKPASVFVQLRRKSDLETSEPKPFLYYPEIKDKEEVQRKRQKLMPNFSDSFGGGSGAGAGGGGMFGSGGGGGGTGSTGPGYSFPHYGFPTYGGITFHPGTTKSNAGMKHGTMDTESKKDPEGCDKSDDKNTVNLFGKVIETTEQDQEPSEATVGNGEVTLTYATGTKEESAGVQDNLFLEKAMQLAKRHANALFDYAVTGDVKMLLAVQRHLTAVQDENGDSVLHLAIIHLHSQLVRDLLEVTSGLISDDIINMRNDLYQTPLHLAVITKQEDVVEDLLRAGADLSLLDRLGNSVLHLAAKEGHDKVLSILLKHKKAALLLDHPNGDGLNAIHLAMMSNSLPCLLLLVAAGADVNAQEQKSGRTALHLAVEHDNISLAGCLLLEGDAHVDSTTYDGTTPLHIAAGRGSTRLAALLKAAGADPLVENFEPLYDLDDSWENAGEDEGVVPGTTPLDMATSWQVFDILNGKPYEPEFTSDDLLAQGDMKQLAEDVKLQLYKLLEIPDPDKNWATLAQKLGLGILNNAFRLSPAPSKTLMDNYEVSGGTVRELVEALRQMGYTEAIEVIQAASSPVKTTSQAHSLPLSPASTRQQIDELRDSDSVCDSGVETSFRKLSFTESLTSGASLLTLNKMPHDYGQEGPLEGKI
UniProt Q16236, whole entry, looked up: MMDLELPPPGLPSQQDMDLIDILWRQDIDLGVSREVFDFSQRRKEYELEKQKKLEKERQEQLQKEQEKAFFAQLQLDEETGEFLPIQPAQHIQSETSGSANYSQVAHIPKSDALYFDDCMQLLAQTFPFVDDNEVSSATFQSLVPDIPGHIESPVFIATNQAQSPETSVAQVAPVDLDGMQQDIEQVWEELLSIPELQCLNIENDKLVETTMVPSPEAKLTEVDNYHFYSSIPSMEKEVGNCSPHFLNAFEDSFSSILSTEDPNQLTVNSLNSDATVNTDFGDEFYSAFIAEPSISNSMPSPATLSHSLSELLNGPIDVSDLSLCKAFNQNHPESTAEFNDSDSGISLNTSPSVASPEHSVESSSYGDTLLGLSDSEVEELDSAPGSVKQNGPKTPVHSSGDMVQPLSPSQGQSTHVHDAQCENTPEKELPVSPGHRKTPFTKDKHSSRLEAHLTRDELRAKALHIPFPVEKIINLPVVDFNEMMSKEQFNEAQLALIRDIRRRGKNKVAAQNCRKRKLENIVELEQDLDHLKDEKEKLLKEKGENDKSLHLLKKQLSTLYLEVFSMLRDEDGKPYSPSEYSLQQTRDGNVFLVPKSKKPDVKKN
UniProt P40763, whole entry, looked up: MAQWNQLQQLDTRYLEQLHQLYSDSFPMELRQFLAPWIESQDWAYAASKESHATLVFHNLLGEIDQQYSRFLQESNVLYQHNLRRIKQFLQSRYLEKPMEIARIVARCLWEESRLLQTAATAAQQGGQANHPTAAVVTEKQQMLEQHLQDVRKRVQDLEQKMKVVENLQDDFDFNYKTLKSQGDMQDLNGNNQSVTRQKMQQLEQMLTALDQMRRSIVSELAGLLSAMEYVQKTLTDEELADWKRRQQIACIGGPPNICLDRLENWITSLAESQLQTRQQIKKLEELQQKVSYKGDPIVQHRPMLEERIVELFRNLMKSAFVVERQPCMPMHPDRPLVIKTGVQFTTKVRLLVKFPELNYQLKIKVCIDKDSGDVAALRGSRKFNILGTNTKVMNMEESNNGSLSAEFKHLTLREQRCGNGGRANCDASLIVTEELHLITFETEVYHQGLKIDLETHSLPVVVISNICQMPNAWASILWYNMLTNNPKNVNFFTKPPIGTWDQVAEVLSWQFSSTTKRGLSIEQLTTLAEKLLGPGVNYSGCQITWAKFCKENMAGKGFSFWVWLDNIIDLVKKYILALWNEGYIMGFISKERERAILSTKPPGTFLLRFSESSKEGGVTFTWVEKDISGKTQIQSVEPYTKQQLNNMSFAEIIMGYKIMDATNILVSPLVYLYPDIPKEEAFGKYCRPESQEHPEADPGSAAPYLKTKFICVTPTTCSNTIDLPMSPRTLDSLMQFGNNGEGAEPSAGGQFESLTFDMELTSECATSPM
UniProt P04637, whole entry, looked up: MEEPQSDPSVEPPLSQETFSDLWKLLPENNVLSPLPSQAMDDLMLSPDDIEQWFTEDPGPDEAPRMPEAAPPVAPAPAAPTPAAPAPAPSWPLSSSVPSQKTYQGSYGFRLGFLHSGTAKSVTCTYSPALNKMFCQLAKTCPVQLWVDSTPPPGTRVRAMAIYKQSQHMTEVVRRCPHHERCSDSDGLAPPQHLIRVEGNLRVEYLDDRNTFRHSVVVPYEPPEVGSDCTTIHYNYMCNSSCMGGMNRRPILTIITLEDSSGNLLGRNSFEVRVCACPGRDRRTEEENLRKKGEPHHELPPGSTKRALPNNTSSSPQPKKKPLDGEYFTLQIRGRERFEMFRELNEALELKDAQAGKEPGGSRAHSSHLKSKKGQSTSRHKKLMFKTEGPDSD

Columns and labels:
Conditions in all cases: actives raise or lower the signal; mRNA level, 48 h
[1] = read-out: Paternally Expressed 10 (PEG10), PEG10 (gene 23089); experiment: LTEA_HepaRG_PEG10: Life Technologies and Expression Analysis (LTEA) Assay for Paternally Expressed 10 (PEG10) using HepaRG (AID 2283520);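 for AC50: PEG10 transcript by qRT-PCR normalised to ACTB GAPDH and POLR2A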
Method in brief: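 After 48 h exposure of differentiated HepaRG cells (0.5% DMSO vehicle, eight concentrations up to 100 uM, duplicates), PEG10 mRNA was measured by TaqMan qRT-PCR. Values were normalised to endogenous control genes and analysed bidirectionally against vehicle.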

[2] = read-out: Nuclear factor NF-kappa-B p105 subunit (Homo sapiens) (UniProt P19838); experiment: LTEA_HepaRG_NFKB1: Life Technologies and Expression Analysis (LTEA) Assay for Nuclear Factor Kappa B Subunit 1 (NFKB1) using HepaRG (AID 2283521);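 note: TaqMan qRT-PCR transcript normalised to ACTB GAPDH and POLR2A housekeeping genes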
Method in brief: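 Differentiated human HepaRG cells were exposed for 48 h in serum-free induction medium to eight concentrations (top 100 uM, half-log steps, 0.5% DMSO), in duplicate. NFKB1 mRNA was measured by TaqMan qRT-PCR, normalized to ACTB/GAPDH/POLR2A, and fitted bidirectionally against DMSO.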

[3] = read-out: Protein phosphatase 2A (PPP2R4), PTPA (gene 5524); experiment: LTEA_HepaRG_PPP2R4: Life Technologies and Expression Analysis (LTEA) Assay for Protein phosphatase 2A (PPP2R4) using HepaRG (AID 2283522)
Method in brief: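 Using HepaRG cultures maintained in 0.5% DMSO, chemicals are tested 48 h at up to 100 uM in duplicate. Induction or suppression of PPP2R4 mRNA, measured by qRT-PCR, is fitted bidirectionally against the vehicle baseline.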

[4] = read-out: Phosphatase and tensin (PTEN), PTEN (gene 5728); experiment: LTEA_HepaRG_PTEN: Life Technologies and Expression Analysis (LTEA) Assay for Phosphatase and tensin (PTEN) using HepaRG (AID 2283523)
Method in brief: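 HepaRG, 48 h exposure, 8-pt half-log series from 100 uM top, 0.5% DMSO vehicle, duplicates. Readout: Fluidigm qRT-PCR of PTEN transcript; housekeeping normalization (ACTB, GAPDH, POLR2A). Gain or loss fitted relative to DMSO baseline.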

[5] = read-out: solute carrier (SLC22A1), SLC22A1 (gene 6580); experiment: LTEA_HepaRG_SLC22A1: Life Technologies and Expression Analysis (LTEA) Assay for solute carrier (SLC22A1) using HepaRG (AID 2283524)
Method in brief: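 qRT-PCR readout (TaqMan, Fluidigm arrays) of SLC22A1 transcript, normalized to three housekeeping genes; bidirectional curve fit relative to 0.5% DMSO vehicle. Differentiated human HepaRG cells, 48 h chemical exposure, top concentration 100 uM, half-log steps, eight points.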

[6] = read-out: Pyruvate Dehydrogenase Kinase 4 (PDK4), PDK4 (gene 5166); experiment: LTEA_HepaRG_PDK4: Life Technologies and Expression Analysis (LTEA) Assay for Pyruvate Dehydrogenase Kinase 4 (PDK4) using HepaRG (AID 2283525)
Method in brief: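 HepaRG (human liver line), 48 h chemical exposure, 8-pt half-log CRC top 100 uM, 0.5% DMSO vehicle, duplicates. Readout: TaqMan qRT-PCR of PDK4 mRNA, housekeeping-normalized; gain/loss fit relative to DMSO baseline.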

[7] = read-out: NAD(P)H dehydrogenase [quinone] 1 (NQO1), NQO1 (gene 1728); experiment: LTEA_HepaRG_NQO1: Life Technologies and Expression Analysis (LTEA) Assay for NAD(P)H dehydrogenase [quinone] 1 (NQO1) using HepaRG (AID 2283526)
Method in brief: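 In this assay, gene expression is read by qRT-PCR after 48 h exposure of HepaRG cells to eight concentrations (max 100 uM, half-log) in 0.5% DMSO. Each chemical runs in duplicate, and activity is scored relative to vehicle.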

[8] = read-out: Nuclear factor erythroid 2-related factor 2 (Homo sapiens) (UniProt Q16236); experiment: LTEA_HepaRG_NFE2L2: Life Technologies and Expression Analysis (LTEA) Assay for Nuclear factor erythroid 2-related factor 2 (NFE2L2) Transcription Factor using HepaRG (AID 2283527);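 note: TaqMan qRT-PCR transcript level normalised to ACTB GAPDH and POLR2A housekeeping genes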
Method in brief: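 HepaRG, 48 h dosing, 8-pt half-log series from 100 uM in 0.5% DMSO, duplicates. Read-out: NFE2L2 mRNA by qRT-PCR (ACTB/GAPDH/POLR2A normalization). Bidirectional curve fit vs DMSO baseline.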

[9] = read-out: succinate dehydrogenase complex iron sulfur subunit B (SDHB), SDHB (gene 6390); experiment: LTEA_HepaRG_SDHB: Life Technologies and Expression Analysis (LTEA) Assay for succinate dehydrogenase complex iron sulfur subunit B (SDHB) using HepaRG (AID 2283528)
Method in brief: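 HepaRG, 48 h exposure, 8-pt half-log series from 100 uM in 0.5% DMSO, duplicates. Readout: SDHB mRNA by Fluidigm qRT-PCR vs housekeeping genes; bidirectional fit relative to DMSO.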

[10] = read-out: Signal transducer and activator of transcription 3 (Homo sapiens) (UniProt P40763); experiment: LTEA_HepaRG_STAT3: Life Technologies and Expression Analysis (LTEA) Assay for Signal transducer and activator of transcription (STAT3) using HepaRG (AID 2283529)
Method in brief: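 HepaRG, 48 h exposure, 8-pt half-log series (top 100 uM), 0.5% DMSO vehicle, duplicates. Readout: STAT3 transcript by Fluidigm qRT-PCR, housekeeping-normalized; bidirectional fit vs DMSO baseline.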

[11] = read-out: solute carrier (SLCO1B1), SLCO1B1 (gene 10599); experiment: LTEA_HepaRG_SLCO1B1: Life Technologies and Expression Analysis (LTEA) Assay for solute carrier (SLCO1B1) using HepaRG (AID 2283530)
Method in brief: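 Differentiated human HepaRG cells were exposed for 48 h in serum-free induction medium to eight half-log concentrations, top 100 uM, in 0.5% DMSO. SLCO1B1 mRNA was measured by qRT-PCR, normalized to ACTB, GAPDH and POLR2A, and fitted bidirectionally against DMSO.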

[12] = read-out: sulfotransferase 2A1 (SULT2A1), SULT2A1 (gene 6822); experiment: LTEA_HepaRG_SULT2A1: Life Technologies and Expression Analysis (LTEA) Assay for sulfotransferase 2A1 (SULT2A1) using HepaRG (AID 2283531)
Method in brief: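 HepaRG human liver cells, 48 h exposure in serum-free induction medium to 8 half-log concentrations topping at 100 µM (0.5% DMSO), duplicate wells. SULT2A1 mRNA measured by TaqMan qRT-PCR, normalized to ACTB/GAPDH/POLR2A; bidirectional fit against DMSO.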

[13] = read-out: Transforming Growth Factor (TGFA), TGFA (gene 7039); experiment: LTEA_HepaRG_TGFA: Life Technologies and Expression Analysis (LTEA) Assay for Transforming Growth Factor (TGFA) using HepaRG (AID 2283532)
Method in brief: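 qRT-PCR read-out of TGFA transcript, normalized to three housekeeping genes, fitted bidirectionally against 0.5% DMSO baseline. Human HepaRG cultures received chemicals for 48 h at eight half-log concentrations, top 100 uM.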

[14] = read-out: Transforming Growth Factor (TGFB1), TGFB1 (gene 7040); experiment: LTEA_HepaRG_TGFB1: Life Technologies and Expression Analysis (LTEA) Assay for Transforming Growth Factor (TGFB1) Transporter using HepaRG (AID 2283533)
Method in brief: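 Differentiated HepaRG cells exposed 48 hr in serum-free induction medium to eight half-log concentrations up to 100 uM (0.5% DMSO), duplicate; TGFB1 mRNA by TaqMan qRT-PCR normalised to ACTB, GAPDH, POLR2A; bidirectional fit against DMSO.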

TIMP1, TIMP1 (gene 7076) = experiment: LTEA_HepaRG_TIMP1: Life Technologies and Expression Analysis (LTEA) Assay for TIMP1 using HepaRG (AID 2283534)
Method in brief: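 Differentiated HepaRG cells exposed 48 h in serum-free induction medium, duplicates, eight half-log concentrations from 100 uM in 0.5% DMSO. TIMP1 mRNA by qRT-PCR normalized to ACTB, GAPDH, POLR2A; bidirectional fitting against DMSO.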

[15] = read-out: Tumor necrosis factor receptor 1 (TNFRSF1A), TNFRSF1A (gene 7132); experiment: LTEA_HepaRG_TNFRSF1A: Life Technologies and Expression Analysis (LTEA) Assay for Tumor necrosis factor receptor 1 (TNFRSF1A) using HepaRG (AID 2283535)
Method in brief: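 Differentiated HepaRG cells in serum-free induction medium, exposed 48 h in duplicate to 8 half-log concentrations up to 100 uM in 0.5% DMSO. TNFRSF1A mRNA by Fluidigm TaqMan qRT-PCR, normalized to ACTB, GAPDH, POLR2A; bidirectional fit.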

[16] = read-out: Thyroid Hormone Responsive (THRSP), THRSP (gene 7069); experiment: LTEA_HepaRG_THRSP: Life Technologies and Expression Analysis (LTEA) Assay for Thyroid Hormone Responsive (THRSP) using HepaRG (AID 2283536)
Method in brief: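 qRT-PCR read-out (Fluidigm TaqMan), housekeeping-normalized (ACTB/GAPDH/POLR2A). HepaRG, 48 h chemical exposure, 8-pt half-log series from 100 uM in 0.5% DMSO, duplicates. Bidirectional curve fit vs 0.5% DMSO baseline.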

[17] = read-out: Cellular tumor antigen p53 (Homo sapiens) (UniProt P04637); experiment: LTEA_HepaRG_TP53: Life Technologies and Expression Analysis (LTEA) Assay for Tumor Protein P53 (TP53) using HepaRG (AID 2283537)
Method in brief: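 HepaRG, 48 h exposure, top 100 uM, half-log 8-point, 0.5% DMSO vehicle, duplicates. Read: TP53 mRNA by TaqMan qRT-PCR, normalised to ACTB/GAPDH/POLR2A; bidirectional fit vs DMSO.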

[18] = read-out: UDP glucuronosyltransferase (UGT1A1), UGT1A1 (gene 54658); experiment: LTEA_HepaRG_UGT1A1: Life Technologies and Expression Analysis (LTEA) Assay for UDP glucuronosyltransferase (UGT1A1) using HepaRG (AID 2283538)
Method in brief: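 mRNA induction or loss of UGT1A1, by TaqMan qRT-PCR, in duplicate HepaRG wells after 48 h exposure to half-log dilutions topping at 100 uM; DMSO (0.5%) served as baseline.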

[19] = read-out: UDP glucuronosyltransferase (UGT1A6), UGT1A6 (gene 54578); experiment: LTEA_HepaRG_UGT1A6: Life Technologies and Expression Analysis (LTEA) Assay for UDP glucuronosyltransferase (UGT1A6) using HepaRG (AID 2283539)
Method in brief: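 Differentiated HepaRG cells, ~100,000/well, were exposed for 48 h in serum-free induction medium with 0.5% DMSO to 8-point half-log series topping at 100 uM, in duplicate. mRNA measured by Fluidigm TaqMan qRT-PCR, normalized to ACTB, GAPDH and POLR2A.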

Measured: AC50

O=C1C2CC=CCC2C(=O)N1SC(Cl)(Cl)C(Cl)Cl (centres undefined)
active: [5] 50 µM | [15] 0.676 µM | [16] 50 µM
inactive: all other assays above

Cc1cc([N+](=O)[O-])cc([N+](=O)[O-])c1O
active: [1] 6.29 µM | [5] 7.55 µM | [9] 2.53 µM | [10] 2.58 µM | [11] 8.85 µM | [12] 8.3 µM | [13] 50 µM | TIMP1, TIMP1 (gene 7076) 50 µM | [16] 6.3 µM | [17] 89.8 µM | [18] 4.33 µM
inactive: [6] | [14] | [15]
